Source: patent US20240336643A1, “BIFUNCTIONAL COMPOUNDS THAT DEGRADE ALK AND USES THEREOF” (DANA-FARBER CANCER INSTITUTE, INC., priority 2021, published 2024)

Chains of the proteins cited; added tags and fusions are not shown. Lines headed by an entry give the natural chain unless they say otherwise; changes in a name come on top. A line that says so, or that is headed by a name, gives the form on record, which may keep a tag or linker.
HiBiT Wild type Variant 3 EML4-ALK (Homo sapiens, UniProt Q9UM73), UniProt Q9UM73, with tags, fused parts or gaps: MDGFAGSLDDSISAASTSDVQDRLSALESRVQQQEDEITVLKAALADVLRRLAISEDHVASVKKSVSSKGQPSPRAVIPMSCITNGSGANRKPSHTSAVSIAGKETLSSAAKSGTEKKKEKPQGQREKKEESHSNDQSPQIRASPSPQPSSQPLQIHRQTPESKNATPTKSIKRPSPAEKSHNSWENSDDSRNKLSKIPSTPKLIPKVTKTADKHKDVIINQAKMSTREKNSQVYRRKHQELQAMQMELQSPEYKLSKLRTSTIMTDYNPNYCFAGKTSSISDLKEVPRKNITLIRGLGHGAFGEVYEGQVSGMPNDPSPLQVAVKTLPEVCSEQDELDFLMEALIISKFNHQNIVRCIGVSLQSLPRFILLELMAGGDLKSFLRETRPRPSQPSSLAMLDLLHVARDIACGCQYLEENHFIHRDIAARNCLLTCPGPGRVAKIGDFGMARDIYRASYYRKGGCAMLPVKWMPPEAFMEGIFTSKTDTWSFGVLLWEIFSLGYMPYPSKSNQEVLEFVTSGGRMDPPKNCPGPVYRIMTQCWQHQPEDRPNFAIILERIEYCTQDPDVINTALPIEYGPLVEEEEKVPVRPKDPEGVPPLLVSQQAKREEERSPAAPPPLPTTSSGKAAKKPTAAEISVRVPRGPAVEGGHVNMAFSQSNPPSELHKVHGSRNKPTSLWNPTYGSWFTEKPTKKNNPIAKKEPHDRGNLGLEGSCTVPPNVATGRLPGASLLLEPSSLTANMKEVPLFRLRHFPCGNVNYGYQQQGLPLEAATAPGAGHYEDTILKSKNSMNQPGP
HiBiT Wild type Variant 1 EML4-ALK (Homo sapiens, UniProt Q9UM73), UniProt Q9UM73, with tags, fused parts or gaps: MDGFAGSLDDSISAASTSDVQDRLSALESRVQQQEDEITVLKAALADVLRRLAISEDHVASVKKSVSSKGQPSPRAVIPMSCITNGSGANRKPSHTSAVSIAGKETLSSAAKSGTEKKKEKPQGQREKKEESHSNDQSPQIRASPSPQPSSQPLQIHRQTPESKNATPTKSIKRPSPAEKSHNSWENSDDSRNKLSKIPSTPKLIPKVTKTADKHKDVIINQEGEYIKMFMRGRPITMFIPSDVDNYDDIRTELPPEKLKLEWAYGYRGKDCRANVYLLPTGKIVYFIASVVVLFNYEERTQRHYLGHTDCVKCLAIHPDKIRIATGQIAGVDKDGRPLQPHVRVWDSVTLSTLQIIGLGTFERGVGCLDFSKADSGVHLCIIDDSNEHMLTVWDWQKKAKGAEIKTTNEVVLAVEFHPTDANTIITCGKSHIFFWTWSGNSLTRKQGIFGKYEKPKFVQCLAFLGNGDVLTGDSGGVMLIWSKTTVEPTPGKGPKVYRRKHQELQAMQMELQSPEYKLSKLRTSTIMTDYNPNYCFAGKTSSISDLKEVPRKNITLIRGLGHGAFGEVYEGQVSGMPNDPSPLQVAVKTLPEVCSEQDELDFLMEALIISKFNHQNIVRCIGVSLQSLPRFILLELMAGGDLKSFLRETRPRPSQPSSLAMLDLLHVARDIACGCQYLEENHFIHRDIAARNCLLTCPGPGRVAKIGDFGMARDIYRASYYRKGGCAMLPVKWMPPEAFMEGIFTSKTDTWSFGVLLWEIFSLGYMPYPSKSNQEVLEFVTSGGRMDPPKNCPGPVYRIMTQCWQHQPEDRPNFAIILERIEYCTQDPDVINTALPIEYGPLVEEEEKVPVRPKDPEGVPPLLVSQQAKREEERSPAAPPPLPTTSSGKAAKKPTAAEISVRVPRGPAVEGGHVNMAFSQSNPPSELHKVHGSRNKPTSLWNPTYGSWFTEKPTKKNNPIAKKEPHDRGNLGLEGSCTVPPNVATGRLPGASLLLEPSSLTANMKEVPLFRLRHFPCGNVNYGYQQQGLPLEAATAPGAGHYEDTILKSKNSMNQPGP

Assays:
[1] = target: HiBiT Wild type Variant 3 EML4-ALK (Homo sapiens, UniProt Q9UM73); settings: read-out: BAF3 Cellular Degradation - HiBiT Wild type Variant 3 EML4-ALK: DC50; Ba/F3 cells, 0.0003-2 μM, 4 hours
[2] = target: HiBiT Wild type Variant 1 EML4-ALK (Homo sapiens, UniProt Q9UM73); settings: read-out: BAF3 Cellular Degradation - HiBiT Wild type Variant 1 EML4-ALK: DC50; Ba/F3 cells, 0.0003-2 μM, 4 hours

| Structure (SMILES) | DC50 [1] | DC50 [2] |
| --- | --- | --- |
| COc1cc(C2CCN(CC3CC4(C3)CN(c3ccc5c(c3)C(=O)N(C3CCC(=O)NC3=O)C5=O)C4)CC2)c(C)cc1Nc1ncc(Cl)c(Nc2ccccc2S(=O)(=O)C(C)C)n1 (stereo not drawn) [Compound 16, 5-(6-((4-(4-((5-chloro-4-((2-(isopropylsulfonyl)phenyl)amino)pyrimidin-2-yl)amino)-5-methoxy-2-methylphenyl)piperidin-1-yl)methyl)-2-azaspiro[3.3]heptan-2-yl)-2-(2,6-dioxopiperidin-3-yl)isoindoline-1,3-dione] | 4 nM | 14 nM |
| COc1cc(C2CCN(C3CN(c4ccc5c(c4)C(=O)N(C4CCC(=O)NC4=O)C5=O)C3)CC2)c(C)cc1Nc1ncc(Cl)c(Nc2ccccc2S(=O)(=O)C(C)C)n1 (stereo not drawn) [Compound 15, 5-[3-(4-{4-[(5-chloro-4-{[2-(propane-2-sulfonyl)phenyl]amino}pyrimidin-2-yl)amino]-5-methoxy-2-methylphenyl}piperidin-1-yl)azetidin-1-yl]-2-(2,6-dioxopiperidin-3-yl)-2,3-dihydro-1H-isoindole-1,3-dione] | 9 nM | 23 nM |
| CCc1cc2c(cc1CCCCN1CCC(c3ccc4c(c3)CN(C3CCC(=O)NC3=O)C4=O)CC1)C(C)(C)c1[nH]c3cc(C#N)ccc3c1C2=O (stereo not drawn) [Compound 21] | 2 nM | 7 nM |
| COc1cc(CN2CCC(O)(c3ccc4c(c3)CN(C3CCC(=O)NC3=O)C4=O)CC2)c(C)cc1Nc1ncc(Cl)c(Nc2ccccc2S(=O)(=O)C(C)C)n1 (stereo not drawn) [Compound 26, 3-(5-(1-(4-((5-chloro-4-((2-(isopropylsulfonyl)phenyl)amino)pyrimidin-2-yl)amino)-5-methoxy-2-methylbenzyl)-4-hydroxypiperidin-4-yl)-1-oxoisoindolin-2-yl)piperidine-2,6-dione] | 9 nM | 57 nM |
| COc1cc(CCN2CCC(O)(c3ccc4c(c3)CN(C3CCC(=O)NC3=O)C4=O)CC2)c(C)cc1Nc1ncc(Cl)c(Nc2ccccc2S(=O)(=O)C(C)C)n1 (stereo not drawn) [Compound 29] | 25 nM | 85 nM |
| CCc1cc2c(cc1C#CCCCN1CCC(c3ccc4c(c3)CN(C3CCC(=O)NC3=O)C4=O)CC1)C(C)(C)c1[nH]c3cc(C#N)ccc3c1C2=O (stereo not drawn) [Compound 22] | 1 nM | 5 nM |
| CCc1cc2c(cc1N1CC(CN3CCC(c4ccc5c(c4)CN(C4CCC(=O)NC4=O)C5=O)CC3)C1)C(C)(C)c1[nH]c3cc(C#N)ccc3c1C2=O (stereo not drawn) [Compound 23] | 6 nM | 26 nM |
| COc1cc(C2CCN(CC3CCN(c4ccc5c(c4)C(=O)N(C4CCC(=O)NC4=O)C5=O)CC3)CC2)c(C)cc1Nc1ncc(Cl)c(Nc2ccccc2S(=O)(=O)C(C)C)n1 (stereo not drawn) [Compound 10, 5-{4-[(4-{4-[(5-chloro-4-{[2-(propane-2-sulfonyl)phenyl]amino]pyrimidin-2-yl)amino]-5-methoxy-2-methylphenyl}piperidin-1-yl)methyl}piperidin-1-yl}-2-(2,6-dioxopiperidin-3-yl)-2,3-dihydro-1H-isoindole-1,3-dione] | 6 nM | 25 nM |

Second part, the molecule after the results:

| DC50 [1] | DC50 [2] | Structure (SMILES) |
| --- | --- | --- |
| 1 nM | 2 nM | COc1cc(C2CCN(CCC3CN(c4ccc5c(c4)C(=O)N(C4CCC(=O)NC4=O)C5=O)C3)CC2)c(C)cc1Nc1ncc(Cl)c(Nc2ccccc2S(=O)(=O)C(C)C)n1 (stereo not drawn) [Compound 2] |
| 5 nM | 8 nM | COc1cc(C2CCN(C[C@@H]3CCN(c4ccc5c(c4)C(=O)N(C4CCC(=O)NC4=O)C5=O)C3)CC2)c(C)cc1Nc1ncc(Cl)c(Nc2ccccc2S(=O)(=O)C(C)C)n1 (stereo partly drawn) [Compound 9] |
| 6 nM | 26 nM | CNC(=O)c1ccccc1Nc1nc(Nc2cc(C)c(C3CCN(CC4CCN(c5ccc6c(c5)C(=O)N(C5CCC(=O)NC5=O)C6=O)CC4)CC3)cc2OC(C)C)ncc1C(F)(F)F (stereo not drawn) [Compound 19, 2-{[2-({4-[1-({1-[2-(2,6-dioxopiperidin-3-yl)-1,3-dioxo-2,3-dihydro-1H-isoindol-5-yl]piperidin-4-yl}methyl)piperidin-4-yl]-5-methyl-2-(propan-2-yloxy)phenyl}amino)-5-(trifluoromethyl)pyrimidin-4-yl]amino}-N-methylbenzamide] |
|  | 14 nM | COc1cc(C2CCN(C[C@H]3CCN(c4ccc5c(c4)C(=O)N(C4CCC(=O)NC4=O)C5=O)C3)CC2)c(C)cc1Nc1ncc(Cl)c(Nc2ccccc2S(=O)(=O)C(C)C)n1 (stereo partly drawn) [Compound 8, 5-[(3R)-3-[(4-{4-[(5-chloro-4-{[2-(propane-2-sulfonyl)phenyl]amino}pyrimidin-2-yl)amino]-5-methoxy-2-methylphenyl}piperidin-1-yl)methyl]pyrrolidin-1-yl]-2-(2,6-dioxopiperidin-3-yl)-2,3-dihydro-1H-isoindole-1,3-dione] |
| 2 nM | 2 nM | CNC(=O)c1ccccc1Nc1nc(Nc2cc(C)c(C3CCN(CC4CCN(c5ccc6c(c5)C(=O)N(C5CCC(=O)NC5=O)C6=O)CC4)CC3)cc2OC)ncc1C(F)(F)F (stereo not drawn) [Compound 17, 2-{[2-({4-[1-({1-[2-(2,6-dioxopiperidin-3-yl)-1,3-dioxo-2,3-dihydro-1H-isoindol-5-yl]piperidin-4-yl}methyl)piperidin-4-yl]-2-methoxy-5-methylphenyl}amino)-5-(trifluoromethyl)pyrimidin-4-yl]amino}-N-methylbenzamide] |
| 6 nM | 22 nM | CNC(=O)c1ccccc1Nc1nc(Nc2cc(C)c(C3CCN(CC4CN(c5ccc6c(c5)C(=O)N(C5CCC(=O)NC5=O)C6=O)C4)CC3)cc2OC(C)C)ncc1C(F)(F)F (stereo not drawn) [Compound 18, 2-{[2-({4-[1-({1-[2-(2,6-dioxopiperidin-3-yl)-1,3-dioxo-2,3-dihydro-1H-isoindol-5-yl]azetidin-3-yl}methyl)piperidin-4-yl]-5-methyl-2-(propan-2-yloxy)phenyl}amino)-5-(trifluoromethyl)pyrimidin-4-yl]amino}-N-methylbenzamide] |
